Active and inactive are the calls of the source.
What was measured:
Type in all cases: functional, organism-based
Mus musculus [1] = test: Upregulation of catalase gene expression in db/db C57BL/6 mouse at 20 mg/kg, po administered once daily for 30 days by qRT-PCR analysis; conditions: time 30.0 day
Mus musculus [2] = test: Anti-NASH activity in HFD/CCl4-induced nonalcoholic steatohepatitis C57BL/6 mouse assessed as reduction in inflammatory cell infiltration at 10 to 20 mg/kg, po administered once daily for 4 weeks; conditions: dose 10-20 mg/kg
Mus musculus [3] = test: Upregulation of CPT1alpha gene expression in db/db C57BL/6 mouse at 20 mg/kg, po administered once daily for 30 days by qRT-PCR analysis; conditions: time 30.0 day
Mus musculus [4] = test: Hypolipidemic activity in db/db C57BL/6 mouse assessed as upregulation of UCP1 expression at 20 mg/kg, po administered once daily for 30 days by immunohistochemistry analysis; conditions: time 30.0 day
Mus musculus [5] = test: Anti-NASH activity in HFD/CCl4-induced nonalcoholic steatohepatitis C57BL/6 mouse assessed as reduction in liver TC level at 10 to 20 mg/kg, po administered once daily for 4 weeks; conditions: dose 10-20 mg/kg
Mus musculus [6] = test: Anti-NASH activity in HFD/CCl4-induced nonalcoholic steatohepatitis C57BL/6 mouse assessed as improvement in degree of liver fibrosis at 10 to 20 mg/kg, po administered once daily for 4 weeks by masson staining based assay; conditions: dose 10-20 mg/kg
Mus musculus [7] = test: Hypoglycemic activity in ob/ob C57BL/6 mouse assessed as reduction in glucose AUC at 20 mg/kg, po administered once daily for 15 days followed by glucose challenge for 30 mins and measured upto 60 mins post last dose by OGTT; conditions: time 15.0 day
Mus musculus [8] = test: Upregulation of ND1 gene expression in db/db C57BL/6 mouse at 20 mg/kg, po administered once daily for 30 days by qRT-PCR analysis; conditions: time 30.0 day
Mus musculus [9] = test: Upregulation of Apo-CII gene expression in db/db C57BL/6 mouse at 20 mg/kg, po administered once daily for 30 days by qRT-PCR analysis; conditions: time 30.0 day
Mus musculus [10] = test: Anti-NASH activity in po dosed HFD/CCl4-induced nonalcoholic steatohepatitis C57BL/6 mouse assessed as reduction in number of fat vacuoles administered once daily for 4 weeks; conditions: dose 10-20 mg/kg
Mus musculus [11] = test: Hypolipidemic activity in db/db C57BL/6 mouse assessed as reduction in plasma TG level at 20 mg/kg, po administered once daily for 30 days; conditions: time 30.0 day
Mus musculus [12] = test: Downregulation of Apo-CIII gene expression in db/db C57BL/6 mouse at 20 mg/kg, po administered once daily for 30 days by qRT-PCR analysis; conditions: time 30.0 day
Mus musculus [13] = test: Upregulation of ATGL gene expression in db/db C57BL/6 mouse at 20 mg/kg, po administered once daily for 30 days by qRT-PCR analysis; conditions: time 30.0 day
Mus musculus [14] = test: Anti-NASH activity in HFD/CCl4-induced nonalcoholic steatohepatitis C57BL/6 mouse assessed as reduction in balloon like degeneration at 10 to 20 mg/kg, po administered once daily for 4 weeks; conditions: dose 10-20 mg/kg
Mus musculus [15] = test: Downregulation of FAS gene expression in db/db C57BL/6 mouse at 20 mg/kg, po administered once daily for 30 days by qRT-PCR analysis; conditions: time 30.0 day
Mus musculus [16] = test: Hypolipidemic activity in db/db C57BL/6 mouse assessed as reduction in plasma AST level at 20 mg/kg, po administered once daily for 30 days; conditions: time 30.0 day
Mus musculus [17] = test: Upregulation of GPx1 gene expression in db/db C57BL/6 mouse at 20 mg/kg, po administered once daily for 30 days by qRT-PCR analysis; conditions: time 30.0 day
Mus musculus [18] = test: Hypolipidemic activity in db/db C57BL/6 mouse assessed as reduction in plasma total cholesterol content at 20 mg/kg, po administered once daily for 30 days; conditions: time 30.0 day
Mus musculus [19] = test: Hypolipidemic activity in db/db C57BL/6 mouse assessed as reduction in plasma ALT level at 20 mg/kg, po administered once daily for 30 days; conditions: time 30.0 day
Mus musculus [20] = test: Upregulation of SOD2 gene expression in db/db C57BL/6 mouse at 20 mg/kg, po administered once daily for 30 days by qRT-PCR analysis; conditions: time 30.0 day
Mus musculus [21] = test: Hypolipidemic activity in db/db C57BL/6 mouse assessed as improvement in pathological features at 20 mg/kg, po administered once daily for 30 days by HE staining based assay; conditions: time 30.0 day
Mus musculus [22] = test: Anti-NASH activity in HFD/CCl4-induced nonalcoholic steatohepatitis C57BL/6 mouse assessed as reduction in hepatocyte steatosis at 10 to 20 mg/kg, po administered once daily for 4 weeks; conditions: dose 10-20 mg/kg
Mus musculus [23] = test: Downregulation of ACC1 gene expression in db/db C57BL/6 mouse at 20 mg/kg, po administered once daily for 30 days by qRT-PCR analysis; conditions: time 30.0 day
Mus musculus [24] = test: Downregulation of SREBP-1c gene expression in db/db C57BL/6 mouse at 20 mg/kg, po administered once daily for 30 days by qRT-PCR analysis; conditions: time 30.0 day
Mus musculus [25] = test: Downregulation of ANGPTL3 gene expression in db/db C57BL/6 mouse at 20 mg/kg, po administered once daily for 30 days by qRT-PCR analysis; conditions: time 30.0 day
Mus musculus [26] = test: Hypolipidemic activity in db/db C57BL/6 mouse assessed as reduction in liver TG content at 20 mg/kg, po administered once daily for 30 days; conditions: time 30.0 day
Mus musculus [27] = test: Upregulation of SOD1 gene expression in db/db C57BL/6 mouse at 20 mg/kg, po administered once daily for 30 days by qRT-PCR analysis; conditions: time 30.0 day
Mus musculus [28] = test: Anti-NASH activity in HFD/CCl4-induced nonalcoholic steatohepatitis C57BL/6 mouse assessed as reduction in area of liver fibrosis at 10 to 20 mg/kg, po administered once daily for 4 weeks by masson staining based assay; conditions: dose 10-20 mg/kg
Mus musculus [29] = test: Anti-NASH activity in HFD/CCl4-induced nonalcoholic steatohepatitis C57BL/6 mouse assessed as reduction in liver TG level at 10 to 20 mg/kg, po administered once daily for 4 weeks; conditions: dose 10-20 mg/kg
Mus musculus [30] = test: Hypolipidemic activity in db/db C57BL/6 mouse assessed as improvement in pathological features at 20 mg/kg, po administered once daily for 30 days; conditions: time 30.0 day
Mus musculus [31] = test: Hypolipidemic activity in db/db C57BL/6 mouse assessed as reduction in liver NEFA content at 20 mg/kg, po administered once daily for 30 days; conditions: time 30.0 day
Mus musculus [32] = test: Downregulation of SCD1 gene expression in db/db C57BL/6 mouse at 20 mg/kg, po administered once daily for 30 days by qRT-PCR analysis; conditions: time 30.0 day
Mus musculus [33] = test: Hypolipidemic activity in db/db C57BL/6 mouse assessed as reduction in liver TC content at 20 mg/kg, po administered once daily for 30 days; conditions: time 30.0 day
Mus musculus [34] = test: Upregulation of LCAD gene expression in db/db C57BL/6 mouse at 20 mg/kg, po administered once daily for 30 days by qRT-PCR analysis; conditions: time 30.0 day

Measured: Activity

COc1ccc(S(=O)(=O)n2cc(CCC(=O)O)c3cc(OC)ccc32)cc1 [INDEGLITAZAR]
active: all assays above
